Values quoted from earlier work, collected in patent publication US9132099B2, “Medical implants and methods for regulating the tissue response to vascular closure devices” (Vascular Therapies LLC, priority 2001, dated 2015).

Conditions: collagen saturated at 3 μg/g, implanted into muscle tissue, Mehta et al.; cited from earlier work

For gentamicin, the “delivery of antibiotic into blood through day” value is listed as 28 days.
